Measurements taken from BindingDB's records for doi:10.1021/ml400168h (Merck Research Laboratories, 2013).

Target: Sterol O-acyltransferase 1 / ACAT1 (Homo sapiens) (UniProt P35610)
Experiment: Inhibition of human ACAT1

| IC50 | SMILES |
| --- | --- |
| 8.78 µM | Cc1ccc2[nH]c(-c3ccc(-c4ccc(O[C@H]5CC[C@H](C(=O)O)CC5)nc4)nc3)nc2n1 |
| > 10 µM | Cc1ccc2[nH]c(-c3ccc(-c4ccc(O[C@H]5CC[C@@H](C(=O)O)CC5)nc4)nc3)nc2n1 |
